We go through one substance from US20240252795A1, “INGESTIBLE DEVICE FOR DELIVERY OF THERAPEUTIC AGENT TO THE GASTROINTESTINAL TRACT” (BIORA THERAPEUTICS, INC., priority 2018, published 2024).

The data set can be described thus: PK of regular human insulin (NOVOLIN R) after SC or intra-jejunal jet delivery, blood insulin levels. In kind it is in vivo, swine.

Take “NOVOLIN® R: regular human insulin (NOVOLIN® R)”: the Tmax (IJ administration by jet delivery device, blood insulin, individual animal) turned out to be 1.25 h. Further, the “Tmax of blood insulin” value (SC administration, swine, individual animals) was 1.25 h.
